Patent US20190185518A9, “WARHEAD-CONTAINING PEPTIDOMIMETIC MACROCYCLES AS MODULATORS OF BFL-1” (AILERON Therapeutics, Inc., priority 2017, published 2019)

Chains of the proteins cited; added tags and fusions are not shown.
UniProt P10415, whole entry, species assumed: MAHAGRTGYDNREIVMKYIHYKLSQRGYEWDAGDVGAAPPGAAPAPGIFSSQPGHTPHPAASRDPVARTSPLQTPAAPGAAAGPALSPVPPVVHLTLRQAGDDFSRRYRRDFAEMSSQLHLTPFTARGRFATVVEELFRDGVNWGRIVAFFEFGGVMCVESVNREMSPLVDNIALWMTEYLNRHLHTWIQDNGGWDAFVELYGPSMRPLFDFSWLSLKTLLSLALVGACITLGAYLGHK

Biological target: Bcl-2 (Homo sapiens, UniProt P10415)
Assay: Ki determination for Bcl-2 (BCL-2 family binding spectrum)
Details: TABLE 8
Source text: To assess the binding and affinity of compounds that antagonize the interaction between a peptide and an acceptor protein, a fluorescence polarization assay (FPA) utilizing a fluoresceinated peptidomimetic macrocycle derived from a peptidomimetic precursor sequence is used, for example. The FPA technique measures the molecular orientation and mobility using polarized light and fluorescent tracer. […] A compound that antagonizes the interaction between the fluoresceinated peptidomimetic macrocycle and an acceptor protein will be detected in a competitive binding FPA experiment.
For example, putative antagonist compounds (1 nM to 1 mM) and a fluoresceinated peptidomimetic macrocycle (25 nM) are incubated with the acceptor protein (50 nM) in binding buffer (140 mM NaCl, 50 mM Tris-HCL, pH 7.4) for 30 minutes at room temperature. Antagonist binding activity is measured, for example, by fluorescence polarization on a luminescence spectrophotometer (e.g. Perkin-Elmer LS50B). Kd values may be determined by nonlinear regression analysis using, for example, Graphpad Prism software (GraphPad Software, Inc., San Diego, Calif.).

CC1(C)CCC(c2ccc(Cl)cc2)=C(CN2CCN(c3ccc(C(=O)NS(=O)(=O)c4ccc(N[C@H](CCN5CCOCC5)CSc5ccccc5)c(S(=O)(=O)C(F)(F)F)c4)cc3)CC2)C1 [ABT-263, navitoclax, reference compound]
Ki: 0.9 nM
